# Only a part is listed here, and it is no random draw. The source made the active and inactive calls. Cut-off read from the data, not from the text of the source: active = fluorescence intensity above about 16000; inconclusive = no clear call, values can overlap the other calls; inactive = below that.
# Test: compound fluorescence in toxin protease inhibitor counterscreen, primary screen, artefact control for toxin protease inhibitor project, biochemical, multiplex microsphere, HTS (AID 624483); note: test concentration not given here
# Conditions: compound autofluorescence counterscreen, microsphere flow cytometry; hits give high values
row,Structure (SMILES),fluorescence intensity
1,CCC(=O)N(c1ccccc1)C1(COC)CCN(CCc2cccs2)CC1,inactive: 4720
2,CCC(=O)N(c1ccccc1)C1(COC)CCN(CCn2nnn(CC)c2=O)CC1,inactive: 5360
